Source: patent US6443945B1, “Laser assisted pharmaceutical delivery and fluid removal” (Transmedica International, Inc., priority 1993, dated 2002)

Assay: Permeation of radiolabelled drugs through Er:YAG laser-irradiated human skin in Franz diffusion cells
Assay type: in vitro ADME
Details: single Er:YAG pulse, 2 mm, 254 mJ lidocaine, 285 mJ γ-interferon, 274 mJ insulin, 37° C.

For Insulin, which “Permeability Constant, kp” value is on record?
Its value is 11.3 +/− 0.93 ×10^−3 cm/hr.
